Earlier results on one compound are cited in patent US20070101461A1, “Method for Improving Phytoremediation Treatment of a Contaminated Medium” (priority 2001, published 2007).

Only a part of the results on these compounds is given; other tests are left out.

The test system of this data set is plant. Conditions: cited from earlier work.

In the case of `Cc1c([N+](=O)[O-])cc([N+](=O)[O-])cc1[N+](=O)[O-]`, the “Fate in plant (toxic, build up, or volatile)” value was “Toxic, degraded to”.
